Reference: patent publication US20120021939A1, “METHOD FOR PROFILING DRUG COMPOUNDS USING PROTEIN KINASE INHIBITORS” (priority 2009, published 2012)

Key:
VEGFR kinase = settings: lysate from tumor kidney (RCC) of one patient, 144-peptide array, inhibitor added on chip, FIG. 3
[1] = test system: VEGFR kinase and the VEGFR signalling pathway; assay: Kinase activity profiling of tumor lysates on peptide microarray in presence and absence of Sorafinib; type: biochemical, human; settings: pre-treatment RCC tumor lysate

CNC(=O)c1cc(Oc2ccc(NC(=O)Nc3ccc(Cl)c(C(F)(F)F)c3)cc2)ccn1 [Sorafinib]
changes in peptide phosphorylation versus control (DMSO) (VEGFR kinase): majority of the peptides show decreased kinase activity | Test result (inhibition of peptide phosphorylation by PKI) ([1]; Patient 1 (Responder)): Inhibition | Test result (inhibition of peptide phosphorylation by PKI) ([1]; Patient 2 (Responder)): Inhibition | Test result (inhibition of peptide phosphorylation by PKI) ([1]; Patient 3 (Non Responder)): No-Inhibition | Test result (inhibition of peptide phosphorylation by PKI) ([1]; Patient 4 (Non Responder)): No-Inhibition
